The chains behind the UniProt entries cited, without tags or fusion partners.
UniProt P08913, whole entry: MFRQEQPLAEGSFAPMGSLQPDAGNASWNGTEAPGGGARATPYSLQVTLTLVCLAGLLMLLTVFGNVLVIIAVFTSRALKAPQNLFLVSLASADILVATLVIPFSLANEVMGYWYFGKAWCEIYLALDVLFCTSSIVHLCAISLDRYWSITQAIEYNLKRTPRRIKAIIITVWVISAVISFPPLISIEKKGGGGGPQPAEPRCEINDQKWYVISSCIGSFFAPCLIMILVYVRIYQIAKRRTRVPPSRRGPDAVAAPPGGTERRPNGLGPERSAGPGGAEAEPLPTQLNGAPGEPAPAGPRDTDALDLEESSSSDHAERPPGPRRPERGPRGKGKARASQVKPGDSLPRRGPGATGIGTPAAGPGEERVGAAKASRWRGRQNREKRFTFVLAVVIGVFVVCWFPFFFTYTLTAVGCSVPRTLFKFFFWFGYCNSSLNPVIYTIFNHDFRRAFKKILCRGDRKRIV

According to patent publication US20050085463A1 (priority 2003, published 2005):

Biological target: α2A (Alpha 2A) adrenergic receptor (Homo sapiens, UniProt P08913)
Assay: R-SAT competitive antagonist assay
Conditions: nr = no significant antagonist or inverse agonist activity up to 1 μM, nr* = nr but significant agonist activity

## O=C1Cc2cc(CCN3CCN(c4nsc5ccccc45)CC3)c(Cl)cc2N1 [Ziprasidone, reference compound]
  pKi α2A, competitive antagonist: nr
